In the experiment the target is P2Y12R (Homo sapiens, UniProt Q9H244). Description: cell-based. Particulars: IC50, [33P]2-MeSADP competitor; triplicates, mean; footnote b values: three independent experiments, mean ± SD. Here is the method: The cell cultures were maintained in an incubator at 37 °C under a humidified and 5% CO2-conditioned atmosphere. Cells were passaged at 80% confluency. For binding assays, cells were harvested with Trypsin-EDTA (5 mL, Gibco) and resuspended in medium. The suspension was centrifuged at 1000g for 5 min and the supernatant was discarded. The cells were adjusted to assay cell concentration (2 × 10^6 cells/mL) by the addition of D-PBS and stored at 37 °C up to 1 h prior to the binding assay.
The mixture was transferred to a 96-well filter plate (1.0 μm glass fiber filter, MultiScreenHTS FB Filter Plate, Merck Millipore, Billercia, MA) and filtered with a vacuum manifold (MultiScreenHTS Vacuum Manifold, Merck Millipore, Billercia, MA). The filters were washed by the addition of cold PBS buffer (4 × 200 μL) and dried at rt for 1 h. Afterward, a punch-tip plate was mounted and the filters were separated into scintillation vials (10 mL) containing scintillation cocktail (4 mL, Rotiszint eco plus LSC-Universalcocktail). […] Bound activity was plotted as a function of ligand concentration in GraphPad Prism 8.0 (GraphPad Software, version 8.4.3., San Diego, CA).

By UniProt entry, the sequences of proteins in these tests, tags left out. Where a name states a change or a piece, a line headed by the entry shows the natural chain unless it says otherwise.
UniProt Q9H244: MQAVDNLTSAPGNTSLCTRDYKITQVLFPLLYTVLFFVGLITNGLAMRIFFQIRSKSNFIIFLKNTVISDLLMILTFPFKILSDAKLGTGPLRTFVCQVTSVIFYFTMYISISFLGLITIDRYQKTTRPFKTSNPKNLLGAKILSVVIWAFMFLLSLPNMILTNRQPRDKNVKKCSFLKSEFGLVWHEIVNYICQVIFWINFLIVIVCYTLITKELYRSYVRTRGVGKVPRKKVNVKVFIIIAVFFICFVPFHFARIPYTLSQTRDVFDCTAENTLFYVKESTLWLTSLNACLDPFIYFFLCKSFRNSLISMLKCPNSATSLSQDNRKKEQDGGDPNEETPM

Regarding `CCOC(=O)c1cnc(N2CCC(C(=O)NCc3ccc(F)cc3)CC2)c(Cl)c1` [Compound 10, Ethyl 5-Chloro-6-(4-((4-fluorobenzyl)-carbamoyl)-piperidin-1-yl)-nicotinate], the half-maximal inhibitory concentration (IC50) (as a rule, the concentration needed to halve the response being measured) turned out to be 1.14 µM.
